From patent publication US20230168255A1, “UNBLENDING OF TRANSCRIPTIONAL CONDENSATES IN HUMAN REPEAT EXPANSION DISEASE” (Max-Planck-Gesellschaft zur Förderung der Wissenschaften …, priority 2020, published 2023) come the findings set out here.

Protein sequences, listed by entry. Tags and fused reporters are not part of them. Lines headed by an entry give the natural chain unless they say otherwise; changes in a name come on top.
UniProt P70217: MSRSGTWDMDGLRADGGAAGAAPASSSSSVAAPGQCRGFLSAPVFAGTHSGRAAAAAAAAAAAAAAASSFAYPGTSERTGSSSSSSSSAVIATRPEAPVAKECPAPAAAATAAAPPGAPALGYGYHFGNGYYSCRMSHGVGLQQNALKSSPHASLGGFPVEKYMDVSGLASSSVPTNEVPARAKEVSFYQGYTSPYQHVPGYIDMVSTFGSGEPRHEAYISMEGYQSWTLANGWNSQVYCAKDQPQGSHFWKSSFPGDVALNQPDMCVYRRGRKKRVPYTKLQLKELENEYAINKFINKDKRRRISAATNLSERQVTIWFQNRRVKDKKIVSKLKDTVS

The test concerns the target Hoxd13 (endogenous, wild type mouse E12.5 limb bud cells) (mouse) (UniProt P70217). In words: co-immunofluorescence STORM in E12.5 limb bud cells, overlap of Brd4 with Hoxd13 puncta.

For “Brd4 (endogenous, mouse limb bud cells) (from UniProt Q9ESU6 1-1400)”, the fold difference in Manders co-efficient (wild type against spdh +7A Hoxd13) amounted to 1.5 fold.
